Values of other authors in PMC3577726, “Osteocalcin Induces Release of Glucagon-Like Peptide-1 and Thereby Stimulates Insulin Secretion in Mice” (PLoS ONE, 2013).

Conditions: cited from earlier work

vasopressin
Rate of absorption from the intestine into the bloodstream: ~5%

Insulin
Rate of absorption from the intestine into the bloodstream: ~5%
